Data as given in US7727976B2.
Read-outs that look alike come from different tables or passages of the source.

Chains of the proteins cited; added tags and fusions are not shown.
UniProt Q12908, whole entry: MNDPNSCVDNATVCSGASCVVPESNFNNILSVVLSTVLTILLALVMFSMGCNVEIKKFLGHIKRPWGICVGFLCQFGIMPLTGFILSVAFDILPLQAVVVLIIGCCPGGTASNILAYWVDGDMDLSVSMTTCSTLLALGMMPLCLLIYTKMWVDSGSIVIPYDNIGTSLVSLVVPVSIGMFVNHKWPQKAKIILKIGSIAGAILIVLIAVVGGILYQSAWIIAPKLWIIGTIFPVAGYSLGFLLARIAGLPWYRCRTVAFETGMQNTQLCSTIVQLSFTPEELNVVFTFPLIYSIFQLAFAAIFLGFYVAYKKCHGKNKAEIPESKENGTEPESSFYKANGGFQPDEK
UniProt Q14973, whole entry: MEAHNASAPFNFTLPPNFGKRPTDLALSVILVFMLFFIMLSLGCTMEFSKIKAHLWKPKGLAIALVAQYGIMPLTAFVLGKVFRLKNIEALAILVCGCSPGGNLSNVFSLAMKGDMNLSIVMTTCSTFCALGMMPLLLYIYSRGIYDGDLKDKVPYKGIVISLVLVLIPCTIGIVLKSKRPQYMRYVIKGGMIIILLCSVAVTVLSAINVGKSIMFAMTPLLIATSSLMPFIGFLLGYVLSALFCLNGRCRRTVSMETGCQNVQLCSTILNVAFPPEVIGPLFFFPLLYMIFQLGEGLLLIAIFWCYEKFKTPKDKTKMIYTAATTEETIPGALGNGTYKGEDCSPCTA

Experiments:
hIBAT [1] = molecular target: T1, hIBAT (Homo sapiens, UniProt Q12908); assay: Inhibition of radiolabeled taurocholate uptake in hIBAT-transfected CHO cells; conditions: read-out: hIBAT, IC50, inhibition of tritiated taurocholate uptake
Protocol: (§1) CHO cells transfected with either the hIBAT or hLBAT transporter were seeded into 96-well microtiter plates at 100,000 cells/well in 100 μL DMEM containing 10% serum, glutamine and Penstrep. After overnight incubation the media was removed and test compound (25 μL) added at 2× the final desired concentration. Tritiated taurocholate (50,000 CPM/well) was diluted with cold substrate to a final concentration of 5 μM and 25 μL/well of this mixture was added to the plate. After incubating for 1 h at room temperature the solution was removed and the plate washed 4× with PBS at 4° C. 200 μL/well of scintillant is added and the plate then read in a Wallac microbeta counter. The inhibition data is processed by standard methods to calculate an inhibition constant IC50 for the test compound.

hLBAT = hLBAT (Homo sapiens, UniProt Q14973); assay: Inhibition of radiolabeled taurocholate uptake in hLBAT-transfected CHO cells; conditions: read-out: hLBAT, IC50, inhibition of tritiated taurocholate uptake
Protocol: as §1

hIBAT [2] = molecular target: T1, hIBAT; assay: Electrogenic transport in Xenopus oocytes expressing hIBAT (oocyte assay); conditions: relative to glycodeoxycholic acid (GDC) in transporter-expressing oocytes, test sample concentration 100 μM
Source text: RNA preparation: Human IBAT and LBAT Transporter cDNAs were subcloned into a modified pGEM plasmid that contains 5′ and 3′ untranslated sequences from the Xenopus β-actin gene. These sequences increase RNA stability and protein expression. Plasmid cDNA was linearized and used as template for in vitro transcription (Epicentre Technologies transcription kit, 4:1 methylated:non-methylated GTP).
Xenopus oocyte isolation. Xenopus laevis frogs were anesthetized by immersion in Tricaine ([…] in deionized water) for 15 min. Oocytes were removed and digested in frog ringer solution (90 mM NaCl, 2 mM KCl, 1 mM MgCl2, 10 mM NaHEPES, pH 7.45, no CaCl2) with 1 mg/mL collagenase (Worthington Type 3) for 80-100 min with shaking. The oocytes were washed 6 times, and the buffer changed to frog ringer solution containing CaCl2 (1.8 mM). Remaining follicle cells were removed if necessary. Cells were incubated at 16° C., and each oocyte injected with […] RNA in 45 μL solution.
Electrophysiology measurements. Transport currents were measured 2-14 days after injection, using a standard two-electrode electrophysiology set-up (Geneclamp 500 amplifier, Digidata 1320/PCLAMP software and ADInstruments hardware and software were used for signal acquisition). Electrodes ([…]) were microfabricated using a Sutter Instrument puller and filled with 3M KCl. The bath was directly grounded (transporter currents were less than 0.3 μA). Bath flow was controlled by an automated perfusion system (ALA Scientific Instruments, solenoid valves).
For transporter pharmacology, oocytes were clamped at −60 to −90 mV, and continuous current measurements acquired using PowerLab Software and an ADInstruments digitizer. Current signals were lowpass filtered at 20 Hz and acquired at 4-8 Hz. All bath and compound-containing solutions were frog ringers solution containing CaCl2. Compounds were applied for 10-30 seconds until the induced current reached a new steady-state level, followed by a control solution until baseline currents returned to levels that preceded compound application. The difference current (baseline subtracted from peak current during compound application) reflected the net movement of charge resulting from electrogenic transport and was directly proportional to tranport rate. Recordings were made from a single oocyte for up to 60 min, enabling 30-40 separate compounds to be tested per oocyte. To compare results between oocytes expressing different levels of transport activity, a saturating concentration of glycodeoxycholate (300 μM) was used as a common reference to normalize results from test compounds. Using this normalization procedure Vmax (i.e. maximal induced current) for different compounds tested on different oocytes could be compared.

[3] = Table 9, radiolabelled competition assay in transporter-expressing CHO cells
[4] = Table 11, drug/drug surrogate conjugates, transporter-expressing CHO cells
[5] = Table 12, drug/drug surrogate conjugates

IC50 (hIBAT [1]; [3]) [µM]	IC50 (hLBAT; [3]) [µM]	% Max GDC (hIBAT [2]; Table 10) [%]	SMILES	further results
2.5	0.6	18	C[C@H](CCC(=O)O)[C@H]1CC[C@H]2[C@@H]3[C@H](O)C[C@@H]4Cc5[nH]ncc5C[C@]4(C)[C@H]3CC[C@]12C	–
240	0.7	–	C[C@H](CCC(=O)O)[C@H]1CC[C@H]2[C@@H]3CC[C@@H]4Cc5nn(Cc6cccc(O)c6)cc5C[C@]4(C)[C@H]3CC[C@]12C	–
–	–	13	C[C@H](CCC(=O)NCC(=O)O)[C@H]1CC[C@H]2[C@@H]3[C@H](O)C[C@@H]4Cc5nn(CCO)cc5C[C@]4(C)[C@H]3CC[C@]12C	–
> 300	26	–	C[C@H](CCC(=O)O)[C@H]1CC[C@H]2[C@@H]3CC[C@@H]4Cc5[nH]ncc5C[C@]4(C)[C@H]3CC[C@]12C	–
4.5	0.7	–	C[C@H](CCC(=O)O)[C@H]1CC[C@H]2[C@@H]3[C@H](O)C[C@@H]4Cc5nn(Cc6cccc(O)c6)cc5C[C@]4(C)[C@H]3CC[C@]12C	–
62	–	26	C[C@H](CCC(=O)NCC(=O)O)[C@H]1CC[C@H]2[C@@H]3CC[C@@H]4Cc5[nH]ncc5C[C@]4(C)[C@H]3CC[C@]12C	–
> 300	110	40	C[C@H](CCC(=O)O)[C@H]1CC[C@H]2[C@@H]3CC[C@@H]4Cc5nn(CCO)cc5C[C@]4(C)[C@H]3CC[C@]12C	–
–	–	8	C[C@H](CCC(=O)NCC(=O)O)[C@H]1CC[C@H]2[C@@H]3CC[C@@H]4Cc5nc(-c6ccc(C(N)=O)cc6)ncc5C[C@]4(C)[C@H]3CC[C@]12C	–
–	–	–	CCC(COC(=O)OCCn1cc2c(n1)C[C@H]1CC[C@@H]3[C@H](CC[C@]4(C)[C@@H]([C@H](C)CCC(=O)NCC(=O)O)CC[C@@H]34)[C@@]1(C)C2)c1ccccc1 (some centres unmarked)	IC50 (hIBAT [1]; [4]): > 300 µM; IC50 (hLBAT; [4]): 3.2 µM; % Max GDC (hIBAT [2]; [5]): 0%
–	–	–	COc1ccc2cc([C@H](C)C(=O)Oc3cccc(Cn4cc5c(n4)C[C@H]4C[C@@H](O)[C@@H]6[C@H](CC[C@]7(C)[C@@H]([C@H](C)CCC(=O)NCC(=O)O)CC[C@@H]67)[C@@]4(C)C5)c3)ccc2c1	% Max GDC (hIBAT [2]; [5]): 12%
–	–	27	C[C@H](CCC(=O)NCC(=O)O)[C@H]1CC[C@H]2[C@@H]3CC[C@@H]4Cc5nn(Cc6cccc(O)c6)cc5C[C@]4(C)[C@H]3CC[C@]12C	–
–	–	8	C[C@H](CCC(=O)NCC(=O)O)[C@H]1CC[C@H]2[C@@H]3[C@H](O)C[C@@H]4Cc5nn(Cc6cccc(O)c6)cc5C[C@]4(C)[C@H]3C[C@H](O)[C@]12C	–
–	–	–	COc1ccc2cc([C@H](C)C(=O)Oc3cccc(Cn4cc5c(n4)C[C@H]4CC[C@@H]6[C@H](CC[C@]7(C)[C@@H]([C@H](C)CCC(=O)NCC(=O)O)CC[C@@H]67)[C@@]4(C)C5)c3)ccc2c1	% Max GDC (hIBAT [2]; [5]): 0%
70	41	40	C[C@H](CCC(=O)O)[C@H]1CC[C@H]2[C@@H]3CC[C@@H]4Cc5[nH]c(=O)ncc5C[C@]4(C)[C@H]3CC[C@]12C	–
> 300	4	7	C[C@H](CCC(=O)O)[C@H]1CC[C@H]2[C@@H]3[C@H](O)C[C@@H]4Cc5nn(CCO)cc5C[C@]4(C)[C@H]3CC[C@]12C	–
